This list holds what a sample rich in highest values left over.

Assay [1] concerns the target Bromodomain-containing protein 4 (Homo sapiens) (UniProt O60885). Particulars: Compound concentration 20.0 uM.
Assay [2] concerns the target T1, Aurora kinase A (Homo sapiens) (UniProt O14965).
T1 sequence (whole entry): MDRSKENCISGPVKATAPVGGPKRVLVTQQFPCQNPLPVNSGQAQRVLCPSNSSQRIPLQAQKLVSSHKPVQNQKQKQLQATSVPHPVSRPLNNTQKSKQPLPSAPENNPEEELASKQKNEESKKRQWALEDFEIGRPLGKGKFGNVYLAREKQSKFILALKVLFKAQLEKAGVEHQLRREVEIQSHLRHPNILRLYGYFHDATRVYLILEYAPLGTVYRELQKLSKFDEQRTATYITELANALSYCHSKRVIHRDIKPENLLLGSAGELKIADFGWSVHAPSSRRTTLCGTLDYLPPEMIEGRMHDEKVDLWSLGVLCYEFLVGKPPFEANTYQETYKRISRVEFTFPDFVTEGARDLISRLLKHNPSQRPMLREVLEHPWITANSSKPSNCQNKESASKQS
Particulars: Compound concentration 20.0 uM.

In the case of `COc1ccccc1S(=O)(=O)Nc1ccc2c(c1)CN(C)C(=O)N2`, the ΔTm in assay [1] stood at 4.91 °C.

On to `CNCc1ccc(-c2[nH]c3cc(F)cc4c3c2CCNC4=O)cc1`, for which the ΔTm in assay [2] was -1.43 °C.

The values above are taken from ChEMBL document CHEMBL5724796, “Tm Shift (DSF) assay results for EUbOPEN Chemogenomics Library” (2024).
